By UniProt entry, the sequences of proteins in these tests, tags left out.
UniProt P34949, whole entry: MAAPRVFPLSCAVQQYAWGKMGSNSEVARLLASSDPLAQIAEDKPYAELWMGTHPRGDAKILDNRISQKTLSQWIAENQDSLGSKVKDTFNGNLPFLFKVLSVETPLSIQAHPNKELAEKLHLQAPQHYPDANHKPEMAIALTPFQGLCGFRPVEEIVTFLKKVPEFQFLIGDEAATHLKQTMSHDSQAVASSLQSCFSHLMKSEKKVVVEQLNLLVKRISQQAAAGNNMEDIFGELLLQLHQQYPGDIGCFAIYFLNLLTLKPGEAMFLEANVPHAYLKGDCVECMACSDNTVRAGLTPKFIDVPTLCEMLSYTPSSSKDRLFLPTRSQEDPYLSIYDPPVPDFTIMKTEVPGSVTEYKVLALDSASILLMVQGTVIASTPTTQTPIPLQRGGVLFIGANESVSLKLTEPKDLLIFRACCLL

The list shows a part of the results. Calls of active or inactive are those of the source.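 How the source made its calls: active means activation factor of 2 or more at 20 µM, relative to plate controls; inactive means the rest.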
These compounds were tested against Mannose-6-phosphate isomerase (Homo sapiens) (UniProt P34949) (assay: activators of human PMI, primary screen, biochemical, fluorescence intensity, near-Km mannose 6-phosphate (AID 1214)). Settings: purified human PMI, coupled resazurin fluorescence, 20 min, at 20 µM; stronger effect = higher value, 1 = vehicle control, 0 substrate-free wells.
`O=[N+]([O-])c1cc([N+](=O)[O-])c(NCC2CCS(=O)(=O)C2)c([N+](=O)[O-])c1` (centres undefined) was tested, and the activation factor was inactive: 0.9.
`CC(=O)NC(SC(=S)N(C)C)C(Cl)(Cl)Cl` (centres undefined) was tested, and the activation factor was “inactive”.
`CCOP(C)(=S)SCC(=O)NC(C)(CC)C(=O)O` (centres undefined) was tested, and the activation factor was inactive: 0.9.
With `O=P(Nc1nccs1)(c1ccccc1)c1ccccc1` the activation factor was “inactive”.
In the case of `CC(C)C(=O)NC(Sc1ccccc1)C(Cl)(Cl)Cl` (centres undefined), the activation factor was “inactive”.
For `Cc1ccccc1NP(C)(=O)Nc1ccccc1C`, the activation factor was inactive: 0.9.
`CP(=O)(Nc1ccc2c(c1)OCCO2)Oc1ccccc1` (centres undefined) was tested, and the activation factor was “inactive”.
For `CC(C)c1ccc(OP(C)(=O)Nc2ccc(SC(F)(F)F)cc2)cc1` (centres undefined), the activation factor was inactive: 0.7.
In the case of `CC(C)(C)C(=O)NC(Sc1ccccc1)C(Cl)(Cl)Cl` (centres undefined), the activation factor was “inactive”.
`CP(=O)(Nc1ccccc1F)Oc1ccccc1` (centres undefined) was tested, and the activation factor was “inactive”.
`CCOc1ccc(C2=NCC(CBr)S2)cc1` (centres undefined) was tested, and the activation factor was “inactive”.
With `O=C(OCCN1CCN(CCOCc2ccccc2)CC1)C(O)(c1ccccc1)c1ccccc1` the activation factor was inactive: 1.3.
`COc1ccc(OP(C)(=O)Nc2ccc(SC(F)(F)F)cc2)cc1` (centres undefined) was tested, and the activation factor was inactive: 1.1.
In the case of `CCOC(=O)c1ccc(NP(C)(=O)Oc2ccc(F)cc2)cc1` (centres undefined), the activation factor was “inactive”.
In the case of `CCOC(=O)NC(Sc1ccccc1)C(Cl)(Cl)Cl` (centres undefined), the activation factor was “inactive”.
`CCNC(=S)/N=C(\N)N[N+](=O)[O-]` was tested, and the activation factor was “inactive”.
`O=c1c2cc([N+](=O)[O-])ccc2[nH]c2c([N+](=O)[O-])cc([N+](=O)[O-])cc12` was tested, and the activation factor was “inactive”.
With `CP(=O)(Nc1ccccc1)Oc1ccc(F)cc1` (centres undefined) the activation factor was “inactive”.
For `CCN(CC)CCCOC(=O)C(O)(c1ccccc1)C1CCCCC1` (centres undefined), the activation factor was inactive: 1.2.
`COC(=O)c1cc2c(s1)N=C(c1ccccc1)N(C)P2(=O)N1CCOCC1` (centres undefined) was tested, and the activation factor was “inactive”.
With `COc1ccc(OP(C)(=O)Nc2ccccc2Br)cc1` (centres undefined) the activation factor was “inactive”.
`COc1ccccc1OP(C)(=O)Nc1ccc(C)c(C)c1` (centres undefined) was tested, and the activation factor was inactive: 1.1.
`CCOP(=O)(Nc1ccccc1)OCC` was tested, and the activation factor was “inactive”.
With `Cc1cc(C)cc(OP(C)(=O)Nc2cccc(C(F)(F)F)c2)c1` (centres undefined) the activation factor was inactive: 0.9.
With `CP(=O)(OCCOc1ccccc1)OCCOc1ccccc1` the activation factor was “inactive”.
With `CP(=O)(Nc1ccc(Cl)cc1Cl)Oc1ccccc1` (centres undefined) the activation factor was “inactive”.
For `Cc1nc2ccc3ccccc3c2o1.O=[N+]([O-])c1cc([N+](=O)[O-])c(O)c([N+](=O)[O-])c1`, the activation factor was inactive: 0.5.
In the case of `CN(C)CCOC(=O)C(O)(c1ccccc1)C1CCCC1` (centres undefined), the activation factor was inactive: 1.1.
For `COc1ccc(OP(C)(=O)Nc2ccccn2)cc1` (centres undefined), the activation factor was “inactive”.
In the case of `COc1ccccc1OP(=O)(Nc1ccc(C)cn1)Oc1ccccc1OC`, the activation factor was “inactive”.
In the case of `Cc1ccc(N/C(=N/P(=O)(N2CCOCC2)N2CCOCC2)N2CCOCC2)cc1`, the activation factor was “inactive”.
In the case of `CCc1ccc(OP(C)(=O)O)cc1`, the activation factor was “inactive”.
With `COc1ccccc1OP(C)(=O)Nc1ccc(C)cc1C` (centres undefined) the activation factor was inactive: 0.9.
For `CP(=O)(Nc1ccccn1)Oc1ccccc1` (centres undefined), the activation factor was inactive: 0.9.
For `O=C(NC(Sc1ccncn1)C(Cl)(Cl)Cl)c1ccccc1` (centres undefined), the activation factor was “inactive”.
For `Oc1ccccc1CNc1ccccn1`, the activation factor was “inactive”.
With `O=[N+]([O-])c1cc([N+](=O)[O-])c(Nc2ccccn2)c([N+](=O)[O-])c1` the activation factor was inactive: 0.5.
With `Cc1c(NP(C)(=O)Oc2ccc(C(C)C)cc2)c(=O)n(-c2ccccc2)n1C` (centres undefined) the activation factor was inactive: 1.2.
In the case of `CCc1ccc(OP(C)(=O)Nc2cccnc2)cc1` (centres undefined), the activation factor was inactive: 1.1.
In the case of `Cc1ccc(NP(=O)(Oc2ccccc2)Oc2ccccc2)nc1`, the activation factor was “inactive”.
For `CP(=O)(Oc1ccccc1)N1CCOC1=O` (centres undefined), the activation factor was “inactive”.
For `COc1ccccc1OP(C)(=O)Nc1c(C)n(C)n(-c2ccccc2)c1=O` (centres undefined), the activation factor was “inactive”.
In the case of `CC(=O)N1C2C3N(C(C)=O)C1C1N(C(C)=O)C(C(N1C(C)=O)N3C(C)=O)N2C(C)=O`, the activation factor was “inactive”.
With `COc1ccc(OP(C)(=O)Nc2ccc(Br)cc2)cc1` (centres undefined) the activation factor was “inactive”.
For `CCN(CC)CC(O)COC(=O)C(O)(c1ccccc1)C1CCCCC1` (centres undefined), the activation factor was “inactive”.
In the case of `CC1CCN(C(=O)Oc2c(Cl)cc(Cl)c3cccnc23)CC1`, the activation factor was “inactive”.
`CN(C)C(=O)OCCc1n(C)cc[n+]1C` was tested, and the activation factor was “inactive”.
With `CN(C)C(=O)c1c([N+](=O)[O-])cc([N+](=O)[O-])cc1[N+](=O)[O-]` the activation factor was inactive: 0.9.
`CP(=O)(Nc1ccc(Cl)cc1)Oc1ccc(F)cc1` (centres undefined) was tested, and the activation factor was inactive: 0.9.
In the case of `CCN(/C(=N/P(=O)(N1CCOCC1)N1CCOCC1)N1CCOCC1)c1ccc(OC)cc1`, the activation factor was “inactive”.
For `CC(C)(C)c1ccc(OP(C)(=O)O)cc1`, the activation factor was “inactive”.
`COc1ccccc1OP(C)(=O)Nc1ccccc1Br` (centres undefined) was tested, and the activation factor was inactive: 1.1.
`CP(=O)(OC12CC3CC(CC(C3)C1)C2)OC12CC3CC(CC(C3)C1)C2` was tested, and the activation factor was “inactive”.
For `CCOC(=O)c1ccc(NP(C)(=O)Oc2ccc(Cl)cc2)cc1` (centres undefined), the activation factor was inactive: 0.9.
